One assay deals with MOLM14 cells. Briefly: Proliferation assay, spheroid-like growth, MOLM14 (MLL-AF9 rearranged). Conditions: read-out: spheroid assay_OneTime MOLM14 IC50, 8 days, confluence as measure of spheroid size. The protocol:
(§1) The anti-proliferative effect of menin/MLL protein/protein interaction inhibitor test compounds was assessed in human leukemia cell lines. The cell line MOLM14 harbors a MLL translocation and expresses the MLL fusion proteins MLL-AF9, respectively, as well as the wildtype protein from the second allele. […] KO-52 was used as a control cell line containing two MLL (KMT2A) wildtype alleles in order to exclude compounds that display general cytotoxic effects.
MOLM14 cells were cultured in RPMI-1640 (Sigma Aldrich) supplemented with 10% heat-inactivated fetal bovine serum (HyClone), 2 mM L-glutamine (Sigma Aldrich) and 50 μg/ml gentamycin (Gibco). KO-52 cell lines were propagated in alpha-MEM (Sigma Aldrich) supplemented with 20% heat-inactivated fetal bovine serum (HyClone), 2 mM L-glutamine (Sigma Aldrich) and 50 μg/ml gentamycin (Gibco).
In order to assess the anti-proliferative effects, 200 MOLM14 cells, or 300 KO-52 cells were seeded in 200 μl media per well in 96-well round bottom, ultra-low attachment plates (Costar, catalogue number 7007). Cell seeding numbers were chosen based on growth curves to ensure linear growth throughout the experiment. Test compounds were added at different concentrations and the DMSO content was normalized to 0.3%. Cells were incubated for 8 days at 37° C. and 5% CO2. Spheroid like growth was measured in real-time by live-cell imaging (IncuCyteZOOM, Essenbio, 4× objective) acquiring images at day 8. Confluence (%) as a measure of spheroid size was determined using an integrated analysis tool.
In order to determine the effect of the test compounds over time, the confluence in each well as a measure of spheroid size, was calculated. Confluence of the highest dose of a reference compound was used as baseline for the LC (Low control) and the confluence of DMSO treated cells was used as 0% cytotoxicity (High Control, HC).
Absolute IC50 values were calculated as percent change in confluence as follows:
LC=Low Control: cells treated with e.g. 1 μM of the cytotoxic agent staurosporin, or e.g. cells treated with a high concentration of an alternative reference compound
GraphPad Prism (version 7.00) was used to calculate the IC50. Dose-response equation was used for the plot of % Effect vs Log 10 compound concentration with a variable slope and fixing the maximum to 100% and the minimum to 0%.

Protein sequences, listed by entry. Tags and fused reporters are not part of them. Chains listed by the source or under a name are the forms on record and can include a tag or linker. Residues count along the entry.
UniProt O00255, 1-610 with tags or gaps T541A: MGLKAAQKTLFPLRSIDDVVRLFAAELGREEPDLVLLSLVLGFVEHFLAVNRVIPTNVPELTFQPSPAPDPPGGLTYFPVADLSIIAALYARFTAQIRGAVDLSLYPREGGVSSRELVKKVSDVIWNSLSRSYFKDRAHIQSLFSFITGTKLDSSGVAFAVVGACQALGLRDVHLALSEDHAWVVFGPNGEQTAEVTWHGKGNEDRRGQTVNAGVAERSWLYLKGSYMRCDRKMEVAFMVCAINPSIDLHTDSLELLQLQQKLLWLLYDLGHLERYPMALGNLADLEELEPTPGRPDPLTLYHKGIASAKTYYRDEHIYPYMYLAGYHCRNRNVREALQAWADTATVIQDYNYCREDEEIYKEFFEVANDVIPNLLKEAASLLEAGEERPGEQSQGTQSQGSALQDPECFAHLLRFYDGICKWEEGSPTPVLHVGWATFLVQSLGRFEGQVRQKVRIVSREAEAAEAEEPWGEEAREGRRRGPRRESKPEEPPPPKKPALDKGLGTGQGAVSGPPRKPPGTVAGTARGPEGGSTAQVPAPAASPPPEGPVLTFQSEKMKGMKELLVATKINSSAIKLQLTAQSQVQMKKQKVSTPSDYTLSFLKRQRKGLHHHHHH

For assay [1], the target named is menin/MLL (terbium chelate-labeled menin, FITC-MBM1 peptide) (Homo sapiens, UniProt O00255, T541A). The assay can be described thus: Menin/MLL homogenous time-resolved fluorescence (HTRF) assay. The note with it: read-out: HTRF-30 min incubation IC50. The protocol: 1) Menin/MLL Homogenous Time-Resolved Fluorescence (HTRF) Assay
To an untreated, white 384-well microtiter plate was added 40 nL 200× test compound in DMSO and 4 μL 2× terbium chelate-labeled menin (vide infra for preparation) in assay buffer (40 mM Tris.HCl, pH 7.5, 50 mM NaCl, 1 mM DTT (dithiothreitol) and 0.05% Pluronic F-127). After incubation of test compound and terbium chelate-labeled menin for 30 min at ambient temperature, 4 μL 2× FITC-MBM1 peptide (FITC-β-alanine-SARWRFPARPGT-NH2 (SEQ ID NO: 3)) (“FITC” means fluorescein isothiocyanate) in assay buffer was added, the microtiter plate centrifuged at 1000 rpm for 1 min and the assay mixtures incubated for 15 min at ambient temperature. The relative amount of menin FITC-MBM1 complex present in an assay mixture is determined by measuring the homogenous time-resolved fluorescence (HTRF) of the terbium/FITC donor/acceptor fluorophore pair using an EnVision microplate reader (ex. 337 nm/terbium em. 490 nm/FITC em. 520 nm) at ambient temperature. The degree of fluorescence resonance energy transfer (the HTRF value) is expressed as the ratio of the fluorescence emission intensities of the FITC and terbium fluorophores (F^em 520 nm/F^em 490 nm). The final concentrations of reagents in the binding assay are 200 pM terbium chelate-labeled menin, 75 nM FITC-MBM1 peptide and 0.5% DMSO in assay buffer. Dose-response titrations of test compounds are conducted using an 11 point, four-fold serial dilution scheme, starting typically at 10 μM.
Compound potencies were determined by first calculating % inhibition at each compound concentration according to equation 1:
% inhibition=((HC−LC)−(HTRF^compound−LC))/(HC−LC))*100 (Eqn 1)
Where LC and HC are the HTRF values of the assay in the presence or absence of a saturating concentration of a compound that competes with FITC-MBM1 for binding to menin, and HTRF^compound is the measured HTRF value in the presence of the test compound. HC and LC HTRF values represent an average of at least 10 replicates per plate.
% inhibition=Bottom+(Top−Bottom)/(1+10^((logIC50−log[cmpd])*h)) (Eqn 2)
Where Bottom and Top are the lower and upper asymptotes of the dose-response curve, respectively, IC50 is the concentration of compound that yields 50% inhibition of signal and h is the Hill coefficient. IC50 values below 0.1 nM in the HTRF assay were reported as 0.1 nM in the Table below (detection limit).
Preparation of Terbium cryptate labeling of Menin: Menin (a.a 1-610-6xhis tag (“6xhis tag” disclosed as SEQ ID NO: 2), 2.3 mg/mL in 20 mM Hepes (2-[4-(2-Hydroxyethyl)-1-piperazinyl]ethane sulfonic acid), 80 mM NaCl, 5 mM DTT (Dithiothreitol), pH 7.5) was labeled with terbium cryptate as follows. 200 μg of Menin was buffer exchanged into 1× Hepes buffer. 6.67 μM Menin was incubated with 8-fold molar excess NHS (N-hydroxysuccinimide)-terbium cryptate for 40 minutes at room temperature. Half of the labeled protein was purified away from free label by running the reaction over a NAP5 column with elution buffer (0.1 M Hepes, pH 7+0.1% BSA (bovine serum albumin)). The other half was eluted with 0.1 M phosphate buffered saline (PBS), pH7. 400 μl of eluent was collected for each, aliquoted and frozen at −80° C. The final concentration of terbium-labeled Menin protein was 115 μg/mL in Hepes buffer and 85 μg/mL in PBS buffer, respectively.
On the technique in general: Time-resolved FRET reads energy transfer from a long-lived donor to a nearby acceptor.

For another assay, the system named is KO-52 cells. Briefly: Proliferation assay, spheroid-like growth, KO-52 (MLL wildtype control cell line). Conditions: read-out: spheroid assay_OneTime KO-52 IC50; KO-52 control cells, 8 days, confluence as measure of spheroid size. As to the method:
as §1
MOLM14 cells were cultured in RPMI-1640 (Sigma Aldrich) supplemented with 10% heat-inactivated fetal bovine serum (HyClone), 2 mM L-glutamine (Sigma Aldrich) and 50 μg/ml gentamycin (Gibco). […]
In order to assess the anti-proliferative effects, 200 MOLM14 cells, or 300 KO-52 cells were seeded in 200 μl media per well in 96-well round bottom, ultra-low attachment plates (Costar, catalogue number 7007). […] Spheroid like growth was measured in real-time by live-cell imaging (IncuCyteZOOM, Essenbio, 4× objective) acquiring images at day 8. Confluence (%) as a measure of spheroid size was determined using an integrated analysis tool.
In order to determine the effect of the test compounds over time, the confluence in each well as a measure of spheroid size, was calculated. […]
Absolute IC50 values were calculated as percent change in confluence as follows: […]

The term IC50 denotes the concentration that inhibits the measured activity by half.

With `CC(C)[C@H]([C@H]1C[C@@H](Nc2ccnc(NS(C)(=O)=O)c2)C1)N1CC2(CCN(c3ncnnc3Oc3ccc(F)cc3-c3cncnc3C3CC3)C2)C1`, the IC50 in the assay with MOLM14 cells was determined as 130 nM; in assay [1] it was 0.13 nM.

Consider `Cc1cc(C2CC2)c(-c2cc(F)ccc2Oc2nncnc2N2CCC3(C2)CN([C@@H](C(C)C)[C@H]2C[C@@H](N4C[C@@H]5[C@H](C4)[C@H]5C(=O)N(C)C)C2)C3)nn1`, for which the figures for the IC50 (in the assay with MOLM14 cells; in assay [1]) were 21 nM and 0.26 nM, respectively.

Consider `C[C@H]([C@H]1C[C@@H](N)C1)N1CC2(CCN(c3ncnnc3Oc3ccc(F)cc3-c3cncnc3C3CC3)C2)C1`, for which the 50% inhibitory concentration (IC50) in assay [1] worked out at 13.7 nM.

Regarding `CC(=O)Nc1cccc(N[C@H]2C[C@@H]([C@@H](C(C)C)N3CC4(CCN(c5ncnnc5Oc5ccc(F)cc5-c5cncnc5C5CC5)C4)C3)C2)n1`, the half-maximal inhibitory concentration (IC50) in the assay with MOLM14 cells was 8 nM; in assay [1] it was 0.14 nM.

Take `CC(C)[C@@H]([C@H]1C[C@]2(CCC(=O)N2)C1)N1CC2(CCN(c3ncnnc3Oc3ccc(F)cc3-c3cncnc3C3CC3)C2)C1`: the IC50 with KO-52 cells is 5870 nM; in the assay with MOLM14 cells it was 120 nM; in assay [1], 0.2 nM.
